## Binding of CDR-mutated scFvs to a peptide of the spike HR2 region

Source: Engelhart et al. 2022 (doi:10.1038/s41597-022-01779-4), MIT Lincoln Laboratory and A-Alpha Bio; data file from the FLAb repository.

Target peptide (SARS-CoV-2 spike, HR2 region): PDVDLGDISGINAS

Ab-91 is the parent antibody, in scFv form: VL, then three GGGGS repeats, then VH. The light chain is unchanged in all variants.
VL: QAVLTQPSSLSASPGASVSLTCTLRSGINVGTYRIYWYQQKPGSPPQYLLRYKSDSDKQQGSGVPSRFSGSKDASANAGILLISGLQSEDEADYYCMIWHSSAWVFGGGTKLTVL
VH: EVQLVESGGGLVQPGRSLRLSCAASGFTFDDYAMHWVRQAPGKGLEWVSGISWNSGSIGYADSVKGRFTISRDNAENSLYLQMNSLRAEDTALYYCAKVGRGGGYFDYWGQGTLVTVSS

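The starting antibody came from a phage panning campaign against this peptide. Variants in AAYL51 differ from the parent at up to three CDR positions; double and triple changes were sampled at random. Affinity was read by AlphaSeq, a pooled yeast mating assay with surface-displayed partners. Mating (16 h, 30 °C) was followed by selection of diploids and sequencing of their barcodes. Each replicate has its own calibration line, from reference interactions of the BCL2 family. There are three technical replicates.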

Each variant is given by its three heavy chain CDRs, as the data file delimits them; those of the parent are GFTFDDYAMH, GISWNSGSIGYADSVK, VGRGGGYFDY.
All variants listed here change N54 of the VH, counted from its first residue.
Values are apparent Kd, the geometric mean of the replicates that gave a signal; lower means stronger binding.
An entry "no signal" has no value in the source: the pair was not observed among the diploids in any replicate. This suggests poor binding but is not conclusive.

For GFTFDDYAMH | GISWMSGSIGYADSVK | VGRGGEYFDL, the assay gave 20 µM (2 of 3 replicates). The variant GFYFDDYRMH | GISWCSGSIGYADSVK | VGRGGGYFDY showed no signal (0 of 3 replicates). With GFTFDDYAQH | GISWGSGSFGYADSVK | VGRGGGYFDY the result was 440 µM (1 of 3 replicates). The variant GFTFDDYAMK | GISTRSGSIGYADSVK | VGRGGGYFDY showed no signal (0 of 3 replicates). With GFTFDDYAIH | GISWVSGSIGYADSVK | VCRGGGYFDY the result was no signal (0 of 3 replicates).

The variant GFTFDDYAMH | GISWYSGSIGYADSVK | VGRGGGYQDV showed 32 µM (1 of 3 replicates). With GFTFDDYAMD | GISWQSGSIGYADSVK | VGRGGGYRDY the result was no signal (0 of 3 replicates). The variant GFTFDDYAMH | GRSWASGSIGYADSVK | VGRGGGYFDD gave 46 µM (1 of 3 replicates). The variant GFTFDDYIMH | GISWRSGSIGYADSPK | VGRGGGYFDY gave no signal (0 of 3 replicates). The variant GFTFDDYAMY | GISWTSHSIGYADSVK | VGRGGGYFDY gave no signal (0 of 3 replicates).

With GFTFDDYAMH | GISWTSGSIGYADSVK | VGRGPGMFDY the result was 640 µM (1 of 3 replicates). The variant GVTFDDYAMH | GISWESGSIGYADSVK | VGRGGGYFDY gave 5.8 µM (1 of 3 replicates). With GFTFDDYAMH | GISWCSGSIGYADDVK | VGRGGGYFDY the result was no signal (0 of 3 replicates). With GFTFDDYAMH | GISWGSGSIGHADSVK | VGRGGGYEDY the result was 890 nM (1 of 3 replicates). The variant GFTFDDYAMH | GISFMSGSIGYADSVK | VGRGGCYFDY gave no signal (0 of 3 replicates).

The variant GFTFDDYAMH | HISFYSGSIGYADSVK | VGRGGGYFDY gave no signal (0 of 3 replicates). With GFTFDDYAMH | GISWQSGSIGYADSVK | VGRGGGYFDY the result was 100 nM (1 of 3 replicates). For WFTFDDYAMH | GISWVSGSIGYADSVK | VGRGGGMFDY, the assay gave no signal (0 of 3 replicates). With GFQSDDYAMH | GISWFSGSIGYADSVK | VGRGGGYFDY the result was 9.7 µM (1 of 3 replicates). The variant GLTFDDYAMH | GINWMSGSIGYADSVK | VGRGGGYFDY showed no signal (0 of 3 replicates).

The variant GFTFDDYAMH | GASWISGSEGYADSVK | VGRGGGYFDY showed 47 µM (3 of 3 replicates). The variant GFTFDDYAMH | GISWSSQSIGYADNVK | VGRGGGYFDY showed 9.5 nM (3 of 3 replicates). The variant GFTFDDYAMH | GISWCSGSIGYEDSVK | VGREGGYFDY showed 110 µM (3 of 3 replicates). With GFTFDDYAMH | GISWASGSIGYAYFVK | VGRGGGYFDY the result was 89 µM (2 of 3 replicates). The variant GDTFDDYAMH | GISWGSGSIGYADSVE | VGRGGGYFDY showed no signal (0 of 3 replicates).

The variant GFTFDDYAMH | GISWGSGSEGYADSVK | VPRGGGYFDY showed 480 nM (3 of 3 replicates). The variant GATFDDYAMH | GISWVSGSIGYADSVK | VSRGGGYFDY gave 30 µM (1 of 3 replicates). The variant GFTFDDPAMH | GISWESGSIGYADSVK | VGRGGGYFDE showed no signal (0 of 3 replicates). With GSTFDDYAMH | GISWKSGSIGYADSVK | VGRFGGYFDY the result was 520 µM (3 of 3 replicates). The variant FFTFDDYAMH | DISWVSGSIGYADSVK | VGRGGGYFDY showed no signal (0 of 3 replicates).

For GFTFDDYASH | VISWTSGSIGYADSVK | VGRGGGYFDY, the assay gave no signal (0 of 3 replicates). The variant GFTFDDYAMH | GIHWMSGSIWYADSVK | VGRGGGYFDY showed no signal (0 of 3 replicates). The variant GFTFDDYAMH | GISWHSGSIGYADSVK | SGRGGGYFDA showed 420 µM (3 of 3 replicates).

The first 2 entries again:

CDR-H1,CDR-H2,CDR-H3,Kd,detected
GFTFDDYAMH,GISWMSGSIGYADSVK,VGRGGEYFDL,20 µM,2 of 3
GFYFDDYRMH,GISWCSGSIGYADSVK,VGRGGGYFDY,no signal,0 of 3

For reference, the parent read 72 nM as the reference entry and 7.5 nM as a member of this library.
Empty control strains, which show no peptide, gave a signal in 21% of pairings with library AAYL51; the median was 34 µM and 95% of these signals were weaker than 1.8 µM. No background was subtracted.